According to the NIST ThermoML archive (doi:10.1016/j.tca.2012.05.036):

What was measured:
[1] = 101.33 kPa, Liquid, Vibrating tube method
[2] = relative permittivity at zero frequency (dimensionless); details: 101.33 kPa, Liquid, Parallel plate capacitor
[3] = refractive index (Na D-line) (dimensionless); details: 101.33 kPa, Liquid, Standard Abbe refractometry

CCCCOCCCC [dibutyl ether]
Details	mass density, [1] [kg/m3]	refractive index, [3]	relative permittivity at zero frequency, [2]
288.15 K	772.6 ± 0.2	–	3.186 ± 0.19
293.15 K	768.27 ± 0.2	1.3978 ± 0.0005	3.145 ± 0.19
298.15 K	763.97 ± 0.2	1.3958 ± 0.0005	3.106 ± 0.19
303.15 K	759.62 ± 0.2	1.393 ± 0.0005	3.068 ± 0.18
308.15 K	755.31 ± 0.21	–	3.031 ± 0.18

Numbers after ± are expanded uncertainties.
